US11174250B2, “Substituted carboxamides as inhibitors of WDR5 protein-protein binding” (PROPELLON THERAPEUTICS INC., priority 2016, dated 2021)
Where two headings read alike, the source gives them in different places. Each block holds one compound with its values, some of them ahead of it.

Assays:
WDR5 protein = WDR5 protein (Homo sapiens (Human), UniProt P61964); experiment: Surface Plasmon Resonance (SPR) assay; type: binding; conditions: for residence time: read-out: Residence Time (t, min)
MLL1-WRAD2 complex = MLL1-WRAD2 complex (Homo sapiens (Human), UniProt P61964); experiment: MLL1-WRAD2 enzyme assay (in vitro methyl transferase assay); type: biochemical
Protocol: Reaction was initiated with 1 μM 3H-SAM and incubated for 1 hour at 30° C. Reaction mixture was transferred to P81 filter-paper and washed with PBS before detection.

[1] = read-out: WDR5 binding affinity (KD)
[2] = read-out: WDR5 binding affinity SPR (KD)

SMILES: CN1CCN(c2c(F)cc(-c3cc(CN4CCOCC4)ccc3F)cc2NC(=O)c2c[nH]c(=O)cc2C(F)(F)F)CC1 [Example 98, N-(2′,5-difluoro-4-(4-methylpiperazin-1-yl)-5′-(morpholinomethyl)-[1,1′-biphenyl]-3-yl)-6-oxo-4-(trifluoromethyl)-1,6-dihydropyridine-3-carboxamide]
residence time (WDR5 protein): 0.78 min

SMILES: Cc1cc(C(=O)Nc2cc(-c3cc(CNC4CCCCC4)ccc3F)ccc2N2CCN(C)CC2)cc(C)c1F [Example 18, N-(5′-((cyclohexylamino)methyl)-2′-fluoro-4-(4-methylpiperazin-1-yl)-[1,1′-biphenyl]-3-yl)-4-fluoro-3,5-dimethylbenzamide]
Kd (WDR5 protein; [1]): 27 nM | Kd (WDR5 protein; [2]): 27 nM

Kd (WDR5 protein; SPR, Table 1, read-out: WDR5 binding affinity (KD)): 17 nM | Kd (WDR5 protein; SPR, Table 2, read-out: WDR5 binding affinity SPR (KD)): 17 nM | residence time (WDR5 protein; SPR, τ=1/koff): 2.55 min | IC50 (MLL1-WRAD2 complex): 764 nM
SMILES: C[C@@H]1CN(Cc2ccc(F)c(-c3ccc(N4CCN(C)CC4)c(NC(=O)c4c[nH]c(=O)cc4C(F)(F)F)c3)c2)C[C@H](C)O1 [Example 1, N-(5′-(((2S,6R)-2,6-dimethylmorpholino)methyl)-2′-fluoro-4-(4-methylpiperazin-1-yl)-[1,1′-biphenyl]-3-yl)-6-oxo-4-(trifluoromethyl)-1,6-dihydropyridine-3-carboxamide]

SMILES: CN1CCN(c2ccc(-c3cc(CN4CCOCC4)ccc3F)cc2NC(=O)c2ccc(=O)[nH]n2)CC1 [Example 9, N-(2′-fluoro-4-(4-methylpiperazin-1-yl)-5′-(morpholinomethyl)-[1,1′-biphenyl]-3-yl)-6-oxo-1,6-dihydropyridazine-3-carboxamide]
Kd (WDR5 protein; [1]): 1600 nM | Kd (WDR5 protein; [2]): 1600 nM
